HCMV UL50-53 inh – inhibitors of HCMV UL50-UL53 interaction, biochemical, HTRF. HCMV UL50-UL53 nuclear egress complex (human cytomegalovirus). normalized percent inhibition. inhibition, % (concentration not given with the values). 190,000 compounds, 0.15% hits; in the data active means inhibition above about 27%, passing the limit was not always enough
GIV-Gai inh – inhibitors of GIV GBA-motif binding to rat Galpha-i3; percent of control (FP), % (concentration not given with the values); AID 1224905; Galpha-i3/FITC-GIV peptide fluorescence polarization, 90 min; stronger effect = lower value; scaled: aluminum fluoride 0%, vehicle 100%; 210,000 compounds, 0.42% hits; P08753;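 active means replicate mean at 85% of control or lower, very high polarization wells dropped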;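 further: wells of about 15 µL received 100 nL stock; the first replicate is given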
GIV Gai FP conf – inhibitors of GIV peptide binding to Galpha-i3, confirmation, biochemical, fluorescence polarization, FITC-GIV peptide, rat Galphai3 | shares compounds with GIV-Gai inh | stronger effect = lower value | fluorescence polarization, mP at 100 µM | 580 compounds, 38% hits;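 active means inhibition score of 15 or more, meaning 100 minus mean polarization as percent of control over three replicates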
GIV Gai AS conf – inhibitors of GIV binding to Galpha-i3, confirmation, orthogonal assay for GIV-Galpha-i inhibitor project, biochemical, AlphaScreen, His-GIV, GST-Galphai3; AID 1259351, 2017; AlphaScreen counts at 100 µM; shares compounds with GIV-Gai inh; 580 compounds, 39% hits; purified proteins, 90 min; stronger effect = lower value;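 active means inhibition score at or above a set limit, where the score is 100 minus the three-replicate mean percent of control signal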
Numbers stand for hits; - = inactive; . = no result given. Rows were chosen to be rich in hits. Some 0.46% of all compounds tested hit in one or more screens of this group.

SMILES	HCMV UL50-53 inh	GIV-Gai inh	GIV Gai FP conf	GIV Gai AS conf
CCOC(=O)c1ccc(-c2ccc(/C=C3\SC(N=Nc4c(O)[nH]c5ccccc45)=NC3=O)o2)cc1	-	-	.	.
CCOC(=O)CC(=O)CSc1nc2c(c(-c3cccs3)c1C#N)CCC2	.	-	-	-
CCOC(=O)CC(=O)CSc1nc(-c2cccs2)cc(-c2cccs2)c1C#N	.	-	.	.
CC1=CC(=C2N=C(c3ccccc3)OC2=O)C=C(C)O1	-	73	-	-
O=C1OC(c2ccccc2)=N/C1=C1/OC(=O)c2ccccc21	-	.	.	.
Cc1nnc(-c2csc(S(=O)(=O)Nc3ccc(Cl)cc3)c2)o1	.	-	.	.
Cc1ccc(NS(=O)(=O)c2cn(C)c(C)n2)c(C)c1	-	-	.	.
O=C(Nc1cccc(-c2nc3ccccc3o2)c1)C(F)(F)F	-	70	-	-
CCC(=O)Nc1cccc(-c2nc3ccccc3o2)c1	-	.	.	.
O=c1[nH]c2nonc2nc1/C=C(\O)c1ccccc1	-	-	.	.
NC(=O)NC(=O)c1nc2nonc2[nH]c1=O	-	44	42	-
O=C(Cc1cccc2ccccc12)NC1CC1	-	-	.	.
CN(C)c1ccc(C(CNC(=O)Cc2ccc(Cl)cc2)N(C)C)cc1 (stereo not given)	-	-	.	.
COc1cccc(C2=CC(c3ccccc3F)n3c(nc4ccccc43)N2)c1 (stereo not given)	.	-	.	.
COc1ccccc1C1C=C(c2cccnc2)Nc2nc3ccccc3n21 (stereo not given)	-	69	48	-
CCc1cccc(NC(=O)c2cc3c(=O)n(Cc4ccc(OC)cc4)ccc3nc2C)c1	.	-	-	-
COc1ccc(Cn2ccc3nc(C)c(C(=O)Nc4cc(OC)cc(OC)c4)cc3c2=O)cc1	-	-	.	.
CCN(c1ccccc1)S(=O)(=O)c1ccc(O)cc1	-	.	.	.
COc1cc(C(=O)Nc2cc(C)c3c(=O)oc4ccccc4c3n2)cc(OC)c1OC	-	-	-	-
Cc1ccccc1C(=O)Nc1cc(C)c2c(=O)oc3ccccc3c2n1	.	-	.	.
N#CCCN(Cc1ccco1)S(=O)(=O)c1cccc(C(F)(F)F)c1	-	-	.	.
CCN1C(C)=C(C)S/C1=C1\SC(=S)N(NC(C)=O)C1=O	.	-	.	.
CCN1C(C)=C(C)S/C1=C1\SC(=S)N(C2CCCCC2)C1=O	-	-	-	-
CCCC1C2CN(C(C)C)CC=C2C(C#N)=C(N)C1(C#N)C#N (stereo not given)	-	79	-	-
CCOC(=O)N1CC=C2C(C#N)=C(N)C(C#N)(C#N)C(CC)C2C1 (stereo not given)	-	-	.	.
SMILES	HCMV UL50-53 inh	GIV-Gai inh	GIV Gai FP conf	GIV Gai AS conf
Clc1ccnc(-c2ccccc2)n1	-	-	.	.
Cc1nn(C2CCS(=O)(=O)C2)c(C)c1CN(C)c1ncnc2sccc12 (stereo not given)	-	.	.	.
Cn1c(=O)n(CC(=O)O)c(=O)c2c1nc1n2CCCN1c1ccc(F)cc1	-	-	.	.
Cn1c(=O)n(CC(=O)O)c(=O)c2c1nc1n2CCN1c1ccc(F)cc1	-	85	-	-
CCc1c(C)c(C#N)c2nc3ccccc3n2c1-n1nc(C)cc1C	-	-	-	-
CCc1c(C)c(C#N)c2nc3ccccc3n2c1N1CCCC1	-	-	.	.
CCN(Cc1ccccc1)c1ncc(C(=O)O)cc1NS(=O)(=O)c1cc(C)cc(C)c1	-	-	.	.
CCN(CC)c1ncc(C(=O)O)cc1NS(=O)(=O)c1cc(C)cc(C)c1	-	80	-	26287
CCCCN(CC)c1ncc(C(=O)O)cc1NS(=O)(=O)c1cc(C)c(C)cc1C	-	-	.	.
Cc1ccc(C)c(S(=O)(=O)Nc2cc(C(=O)O)cnc2N(C)C)c1	-	-	-	26202
CCOC(=O)/C=C1\SCC(=O)N1CCOC(=O)c1cncc(Br)c1	-	.	.	.
Cc1cnc(C(=O)OCCCCN2C(=O)c3ccccc3C2=O)cn1	-	.	.	.
Cc1ccccc1NC(=O)CSC1=C(C#N)C(c2cccs2)C2=C(CCCC2=O)N1 (stereo not given)	.	-	.	.
CCOc1cc(CNc2ccc(O)cc2)ccc1OCc1ccc(Cl)cc1	-	76	61	10130
Oc1ccc(NCc2ccccc2OCc2ccc(Cl)cc2)cc1	-	-	.	.
O=C(CSc1nnc(CCN2CCOCC2)o1)Nc1ccccc1	-	-	.	.
CC1(C(=O)NCc2ccc(Cl)cc2)Cc2ccccc2C(=O)N1CC1CC1 (stereo not given)	.	-	.	.
CCOC(=O)c1ccc(Nc2nc3ccccc3n3cnnc23)cc1	-	-	.	.
